Results as given in publication PMC11939996 (Biomolecules, 2025).

Legend:
[1] = test system: mature Aβ fibrils; experiment: ThT fluorescence of mature Aβ fibrils; assay type: biochemical, human; conditions: HSA 5 μM, fibrils 20 µM monomer equivalent, pH 7.4, 2.5 mM CaCl2
Procedure: The human Aβ40 samples were pretreated as described in ref. [61] with some modifications. Aβ40 sample was dissolved in 5 mM NaOH at pH 11.8 (0.5 mg/mL) and then rocked gently for 72 h at 4 °C. ThT fluorescence emission was measured mainly as described in ref. [61]. […] The ThT fluorescence intensity (λem = 485 nm, λexc = 440 nm) was recorded every 30 min for 266 h using a BioTek Synergy H1 multimode microplate reader (Agilent Technologies, Inc., Santa Clara, CA, USA) with orbital shaking prior to each measurement. Each measurement was performed in 3–4 repetitions. The control kinetic curves (for the wells without Aβ40) were subtracted from the corresponding kinetic curves of the experimental samples. The control kinetic curves are shown in the Supplementary Materials (Figure S4). Data are presented as the mean ± standard deviation. […] The corresponding kinetic curves are given in the Supplementary Materials (Figures S7 and S8).

[2] = target: monomeric Aβ40; experiment: Bio-layer interferometry, analyte binding to immobilized monomeric Aβ40; design: species or system human
Procedure: (§1) Next, 96-well microplates with analyte solutions were kept at 25 °C and shaken at 1000 rpm. The Aβ samples were pretreated with neat TFA, followed by dissolution in DMSO as described in ref. [61, 66]. […] The rest of the activated amine groups on the sensor were blocked by 1 M ethanolamine solution. […] The sensor surface was regenerated by the passage of 0.5% SDS water solution for 30 s.
(§2) The direct interaction of S100 proteins with monomeric Aβ was studied by biolayer interferometry in the buffer conditions mimicking the physiological conditions (20 mM Tris-HCl, 140 mM NaCl, 4.9 mM KCl, 2.5 mM CaCl2, 1 mM MgCl2, pH 7.4).
(§3) Since the S100 proteins are predominantly dimeric, their BLI sensograms were described within the bivalent analyte model (1), taking into account that the dimer concentration is half of the monomer concentration.

[3] = test system: 3xTg mouse model; conditions: cited from earlier work
From the text: (§4) In addition to Aβ isoforms, senile plaques contain metal ions (Cu, Fe, Zn) and dozens of proteins, including immunoglobulins, components of the complement system, and proteins involved in metabolism, molecular transport, blood coagulation/hemostasis, cell adhesion, the extracellular matrix, etc.. […] The latter fa ...

[4] = test system: Aβ; conditions: monomeric and multimeric Aβ; cited from earlier work
From the text: as §4

[5] = test system: monomeric Aβ42; experiment: Bio-layer interferometry, analyte binding to immobilized monomeric Aβ42; design: species or system human; conditions: heterogeneous ligand model, HSA 30–50 µM, 25 °C, pH 7.4, mean ± SD
Procedure: as §1, §2, §3

[6] = test system: patients with mild-to-moderate AD; conditions: plasma exchange with replacement of endogenous albumin; cited from earlier work
From the text: as §4

Row | Substance | ThT signal of mature Aβ fibrils [1] | Kd ([2]; heterogeneous ligand model, site 1, printed number is KD1 multiplied by 10^6, HSA 30–50 µM, 25 °C, pH 7.4, 2.5 mM CaCl2, mean ± SD, n = 3–4, read-out: KD1 × 10^6) [µM] | ka1 × 10^−2 ([2]; heterogeneous ligand model, site 1, printed number is ka1 multiplied by 10^−2, HSA 30–50 µM, 25 °C, pH 7.4, mean ± SD) [M^−1s^−1] | kd1 × 10^4 ([2]; heterogeneous ligand model, site 1, printed number is kd1 multiplied by 10^4, HSA 30–50 µM, 25 °C, pH 7.4, mean ± SD) [s^−1] | Kd ([2]; heterogeneous ligand model, site 2, printed number is KD2 multiplied by 10^6, HSA 30–50 µM, 25 °C, pH 7.4, mean ± SD, read-out: KD2 × 10^6) [µM] | ka2 × 10^−2 ([2]; heterogeneous ligand model, site 2, printed number is ka2 multiplied by 10^−2, HSA 30–50 µM, 25 °C, pH 7.4, mean ± SD) [M^−1s^−1] | kd2 × 10^4 ([2]; heterogeneous ligand model, site 2, printed number is kd2 multiplied by 10^4, HSA 30–50 µM, 25 °C, pH 7.4, mean ± SD) [s^−1] | Kd ([2]; restated from Table 1 / Table 2 (HSA: highest-affinity site only), read-out: equilibrium dissociation constant used in Appendix A, Aβ40) [µM] | effect of intracerebroventricular infusion [3] | effect on Aβ binding and fibrillation [4] | ka1 × 10^−2 ([5]; site 1, printed number is ka1 multiplied by 10^−2) [M^−1s^−1] | ka2 × 10^−2 ([5]; site 2, printed number is ka2 multiplied by 10^−2) [M^−1s^−1] | cognitive and functional decline [6]
1 | HSA: Albumin, non-denatured human serum (cat.#126654), Merck | did not alter signi; also recorded: did not change significantly and remained stable | 0.22 ± 0.12 | 7.9 ± 4.4 | 1.72 ± 0.04 | 6.7 ± 4.5 | 0.36 ± 0.24 | 2.38 ± 0.06 | 0.22 | multifactorial beneficial effects, leading to improvement in cognitive tests | ability to bind monomeric and multimeric forms of Aβ and also prevents its fibrillation | 3.5 ± 0.5 | 0.28 ± 0.18 | 
2 | therapeutic albumin: albumin replacing endogenous albumin in plasma exchange |  |  |  |  |  |  |  |  |  |  |  |  | slowed cognitive and functional decline

Entries after “also recorded” stand apart in the source; their conditions may differ. Read-outs that look alike come from different tables or passages of the source.
